Results reported in ChEMBL document CHEMBL4419169, “Novel Ferroportin Inhibitors” (2018).

Key:
Format in all cases: functional
Design in all cases: scale not given: the % may be the effect or the level left
[1] = system: Mus musculus; assay: Disease modifying capacity in mouse model of transfusion-independent beta-thalassemia intermedia assessed as decrease in leukocyte counts level at 60 mg/kg, po BID for 46 days relative to control
[2] = system: Mus musculus; assay: Prevention of hyperferremia in iron overloaded beta2-microglobulin deficient female mouse assessed as reduction in serum iron level at 20 mg/kg, po measured after 1 hr relative to control
[3] = system: Mus musculus; assay: Disease modifying capacity in mouse model of transfusion-independent beta-thalassemia intermedia assessed as decrease in serum erythropoietin at 60 mg/kg, po BID for 46 days relative to control
[4] = system: Mus musculus; assay: Disease modifying capacity in mouse model of transfusion-independent beta-thalassemia intermedia assessed as decrease in relative spleen weight at 20 mg/kg, po BID for 46 days relative to control

SMILES: Cl.Cl.Cl.O=C(NCc1ncccc1F)c1csc(CCNCc2nc3ccccc3[nH]2)n1
- Activity [1]: 36%
- Activity [2]: 35%
- Activity [3]: 37%
- Activity [4]: 23%
